Consider one compound from article PMC12802961 (Journal of Antimicrobial Chemotherapy, 2025).

Structures are written as SMILES.

This data set has as its system P. aeruginosa 106. Briefly: Neutropenic murine thigh infection model. The class given is in vivo, Pseudomonas aeruginosa. As to conditions: cefepime q2h 64 mg/kg, potMIC 4 mg/L (with 4 mg/L taniborbactam). The procedure:
[…]. […] […]. All dosing regimens were performed in at least two animals per dosing regimen.
At t = 0 h, 2 h after infection, two mice were humanely euthanized to determine the initial number of cfu/thigh just before treatment. All other animals were euthanized at t = 24 h unless the welfare of the animals indicated earlier termination, following animal welfare regulations. Thighs were taken and moved to a pre-cooled 10 mL plastic tube (Transport Tube, Omnilabo, NL) containing 2 mL PBS (NaCl 8.00 g/L, Na2HPO4 * 2H2O 1.44 g/L, KH2PO4 0.26 g/L, pH 7.2–7.4). Subsequently, thighs were homogenized using the Ultra-Turrax homogenizer (IKA Labortechnik, Germany). For each thigh 10-fold dilution series were prepared and 3 × 10 µL per dilution were plated (Chromagar, bioMérieux, NL). The following day, colonies were counted and the number of cfu/thigh was calculated. The drug effect was then determined as the difference between the log10cfu/thigh values at t = 24 h and t = 0 h (mean value of two mice) expressed as Δlog10cfu, i.e. positive result for growth, zero for static effect and negative for reduction of inoculum (killing).
. […] Free drug concentrations were used in all calculations. […]

As for `CO/N=C(\C(=O)N[C@@H]1C(=O)N2C(C(=O)[O-])=C(C[N+]3(C)CCCC3)CS[C@H]12)c1csc(N)n1` [cefepime, Cefepime], the “Cefepime %fT > potMIC” value is listed as 57.70%.
